For the test, the target named is EphA2 extracellular domain fused to the Fc portion of an antibody (EphA2 Fc). Briefly: competition ELISA: inhibition of ephrin-A5 AP binding to immobilized EphA2 Fc; average ± SE (number of experiments). On the technique in general: An ELISA detects its analyte on a solid surface through an enzyme-linked reagent.

B1: CcamGA-WLA-YRPK-bio (peptide)
peptide: CGAWLAYPDSVPYRPK
modifications: N-terminal Ccam (as printed, not explained); biotin on the C-terminal lysine (K-bio)
What is called IC50 is the concentration at which inhibition is half-maximal. A lower IC50 goes with greater potency in that assay. In turn, B1 had an IC50 of 0.027 µM.

(Values after patent US12398179.)
